The chains behind the UniProt entries cited, without tags or fusion partners. Where a name states a change or a piece, a line headed by the entry shows the natural chain unless it says otherwise.
UniProt O60896: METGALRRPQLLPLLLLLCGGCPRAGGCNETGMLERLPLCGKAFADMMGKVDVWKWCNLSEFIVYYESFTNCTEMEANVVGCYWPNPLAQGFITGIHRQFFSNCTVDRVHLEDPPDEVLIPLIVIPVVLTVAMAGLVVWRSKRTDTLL

In paper PMC11482831 (bioRxiv, 2024):

What was measured:
[1] = target: T1, AMY3R (HiBiT-CTR:mCitrine-RAMP3) (Homo sapiens, UniProt O60896+P30988); assay: CTR:RAMP cell surface proximity BRET assay, AMY3R; assay type: cell-based; conditions: 300 nM agonist, HEK293 cells, room temperature, 30 min, pH 7.4
T1 sequence (P30988 25-474): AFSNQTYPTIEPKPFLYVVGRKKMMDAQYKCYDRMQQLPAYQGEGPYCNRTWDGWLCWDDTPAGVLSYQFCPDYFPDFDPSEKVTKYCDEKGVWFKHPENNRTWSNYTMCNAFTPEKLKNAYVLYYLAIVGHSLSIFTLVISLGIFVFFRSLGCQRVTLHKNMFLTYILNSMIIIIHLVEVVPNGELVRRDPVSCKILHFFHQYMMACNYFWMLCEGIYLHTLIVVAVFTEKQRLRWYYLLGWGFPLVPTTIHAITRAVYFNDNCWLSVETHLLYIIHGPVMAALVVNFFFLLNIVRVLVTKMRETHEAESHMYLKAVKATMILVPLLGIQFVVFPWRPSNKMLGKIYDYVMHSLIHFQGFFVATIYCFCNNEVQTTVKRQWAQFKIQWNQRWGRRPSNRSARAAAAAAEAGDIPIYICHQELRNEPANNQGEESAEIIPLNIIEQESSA

AMY1R (CTR:RAMP1) = assay: Native PAGE mobility shift assay, single-point, AMY1R; assay type: biochemical, human; conditions: 10 μM agonist, no mGs, detergent-solubilized (LMNG/CHS), in-gel mCitrine fluorescence, qualitative, three replicates
AMY3R (CTR:RAMP3) = assay: Native PAGE mobility shift assay, single-point, AMY3R; assay type: biochemical, human; conditions: 10 μM agonist, no mGs, detergent-solubilized (LMNG/CHS), in-gel mCitrine fluorescence, qualitative, three replicates
[2] = test system: AMY2R (HiBiT-CTR:mCitrine-RAMP2); assay: CTR:RAMP cell surface proximity BRET assay, AMY2R; assay type: cell-based, human; conditions: 300 nM agonist, HEK293 cells, room temperature, 30 min, pH 7.4

calcitonin gene-related peptide (αCGRP)
Change in CTR:RAMP proximity BRET signal, real-time [1]: no effect | Change of subunit distribution (free RAMP1 / AMY1R heterodimer) (AMY1R (CTR:RAMP1)): reduced free RAMP1 and increased the amount of the AMY1R heterodimer | Change of subunit distribution (AMY3R heterodimer / free RAMP3) (AMY3R (CTR:RAMP3)): appeared to be unchanged | Change in CTR:RAMP proximity BRET signal, real-time [2]: increased the BRET signal
